Assay: Octanol/water partition coefficient
Type: physicochemical
Settings: Log10 (octanol phase/aqueous phase), aqueous buffer solution of pH 7
Description: Specifically, the octanol/water partition coefficient can be determined by calculation using an equation: Octanol/water partition coefficient=Log10 (concentration in an octanol phase/concentration in an aqueous phase).

With sulfasalazine as the substance, how does the octanol/water partition coefficient read?
The octanol/water partition coefficient was 2.3.
